Test results reported in the NIST ThermoML archive (doi:10.1016/j.fluid.2009.07.002).

Assay: xn = mol fraction of the nth substance listed
Conditions: 101 kPa, Liquid, Taylor dispersion method

Q: With OCCOCCOCCOCCO [tetraethylene glycol] + O as the molecule, how does the binary diffusion coefficient (303.2 K, x1 = 0) read?
A: Its binary diffusion coefficient is 7.06e-10 m2/s.

Q: And the binary diffusion coefficient (303.2 K, x1 = 0.2)?
A: Its binary diffusion coefficient is 2.39e-10 m2/s.

Q: And the binary diffusion coefficient (303.2 K, x1 = 0.4)?
A: Its binary diffusion coefficient is 1.96e-10 m2/s.

Q: And the binary diffusion coefficient (303.2 K, x1 = 0.6)?
A: Its binary diffusion coefficient is 1.63e-10 m2/s.

Q: What about the binary diffusion coefficient (303.2 K, x1 = 0.8) of the same molecule?
A: Its binary diffusion coefficient is 1.51e-10 m2/s.

Q: What about the binary diffusion coefficient (308.2 K, x1 = 0) of the same molecule?
A: The binary diffusion coefficient was 7.85e-10 m2/s.

Q: And the binary diffusion coefficient (308.2 K, x1 = 0.2)?
A: The binary diffusion coefficient was 2.84e-10 m2/s.

Q: What about the binary diffusion coefficient (308.2 K, x1 = 0.4) of the same molecule?
A: Its binary diffusion coefficient is 2.24e-10 m2/s.

Q: What about the binary diffusion coefficient (308.2 K, x1 = 0.6) of the same molecule?
A: Its binary diffusion coefficient is 1.95e-10 m2/s.

Q: And the binary diffusion coefficient (308.2 K, x1 = 0.8)?
A: Its binary diffusion coefficient is 1.87e-10 m2/s.

Q: And the binary diffusion coefficient (313.2 K, x1 = 0)?
A: Its binary diffusion coefficient is 8.82e-10 m2/s.

Q: And the binary diffusion coefficient (313.2 K, x1 = 0.2)?
A: Its binary diffusion coefficient is 3.33e-10 m2/s.

Q: And the binary diffusion coefficient (313.2 K, x1 = 0.4)?
A: Its binary diffusion coefficient is 2.63e-10 m2/s.

Q: And the binary diffusion coefficient (313.2 K, x1 = 0.6)?
A: Its binary diffusion coefficient is 2.38e-10 m2/s.

Q: What about the binary diffusion coefficient (313.2 K, x1 = 0.8) of the same molecule?
A: The binary diffusion coefficient was 2.19e-10 m2/s.

Q: And the binary diffusion coefficient (318.2 K, x1 = 0)?
A: The binary diffusion coefficient was 9.55e-10 m2/s.

Q: And the binary diffusion coefficient (318.2 K, x1 = 0.2)?
A: Its binary diffusion coefficient is 3.95e-10 m2/s.

Q: And the binary diffusion coefficient (318.2 K, x1 = 0.4)?
A: The binary diffusion coefficient was 3.16e-10 m2/s.

Q: What about the binary diffusion coefficient (318.2 K, x1 = 0.6) of the same molecule?
A: The binary diffusion coefficient was 2.81e-10 m2/s.

Q: What about the binary diffusion coefficient (318.2 K, x1 = 0.8) of the same molecule?
A: Its binary diffusion coefficient is 2.6e-10 m2/s.

Q: What about the binary diffusion coefficient (323.2 K, x1 = 0) of the same molecule?
A: Its binary diffusion coefficient is 1.07e-09 m2/s.

Q: What about the binary diffusion coefficient (323.2 K, x1 = 0.2) of the same molecule?
A: The binary diffusion coefficient was 4.68e-10 m2/s.

Q: What about the binary diffusion coefficient (323.2 K, x1 = 0.4) of the same molecule?
A: Its binary diffusion coefficient is 3.67e-10 m2/s.

Q: What about the binary diffusion coefficient (323.2 K, x1 = 0.6) of the same molecule?
A: Its binary diffusion coefficient is 3.34e-10 m2/s.

Q: And the binary diffusion coefficient (323.2 K, x1 = 0.8)?
A: Its binary diffusion coefficient is 3.18e-10 m2/s.
